Data reported in US20080305111A1, “Anti-C35 antibodies for treating cancer” (VACCINEX, INC., priority 2006, published 2008).

Tested on: BT474 cells
Assay: Cell proliferation assay (alamar blue), BT474
Format: cell-based
Conditions: antibodies at 150 μg/ml, day 6 of in vitro culture

Herceptin: anti-Her2/neu antibody, positive antibody control for Her2-positive tumor cell lines
proliferation: inhibit proliferation of BT474
